Values quoted from earlier work as cited in paper PMC11170107, “Development of a new hazard scoring system in primary neuronal cell cultures for drug-induced acute neuronal toxicity identification in early drug discovery” (Frontiers in Pharmacology, 2024).

Conditions: ref National library of medicine, Daylimed; cited from earlier work

SMILES | FDA prescription information at therapeutic dose (Convulsion/ Seizure/Lower the seizure threshold/withdrawal)
COc1c(N2C[C@@H]3CCCN[C@@H]3C2)c(F)cc2c(=O)c(C(=O)O)cn(C3CC3)c12 [Moxifloxacin] | On label
CC(N)Cc1ccccc1 (centres unmarked) [Amphetamine] | On label
